A short description of the series: Single-dose pharmacokinetics of omeprazole. The series is classed as in vivo, healthy Chinese volunteers. Conditions: 20 mg single oral dose, mean ± SD.

With `COc1ccc2[nH]c([S+]([O-])Cc3ncc(C)c(OC)c3C)nc2c1` (stereo not drawn) [omeprazole], the t1/2 came to 60.6 ± 45.6 min (CYP2C19 *1/*1 (n = 263)), 54 ± 5.4 min (CYP2C19 *2/*17 (n = 2)) and 51.6 ± 7.8 min (CYP2C19 *3/*17 (n = 3)).

Values taken from PMC9199891 (Clinical and Translational Science, 2022).
